# Source: patent US20230159538A1, “PYRROLIDINE-PYRAZOLES AS PYRUVATE KINASE ACTIVATORS” (Global Blood Therapeutics, Inc., priority 2020, published 2023)
# Sequences of proteins named here, by UniProt entry; tags and fusion partners are left off. Residues count along the entry.
# UniProt P30613, 14-574 limits assumed: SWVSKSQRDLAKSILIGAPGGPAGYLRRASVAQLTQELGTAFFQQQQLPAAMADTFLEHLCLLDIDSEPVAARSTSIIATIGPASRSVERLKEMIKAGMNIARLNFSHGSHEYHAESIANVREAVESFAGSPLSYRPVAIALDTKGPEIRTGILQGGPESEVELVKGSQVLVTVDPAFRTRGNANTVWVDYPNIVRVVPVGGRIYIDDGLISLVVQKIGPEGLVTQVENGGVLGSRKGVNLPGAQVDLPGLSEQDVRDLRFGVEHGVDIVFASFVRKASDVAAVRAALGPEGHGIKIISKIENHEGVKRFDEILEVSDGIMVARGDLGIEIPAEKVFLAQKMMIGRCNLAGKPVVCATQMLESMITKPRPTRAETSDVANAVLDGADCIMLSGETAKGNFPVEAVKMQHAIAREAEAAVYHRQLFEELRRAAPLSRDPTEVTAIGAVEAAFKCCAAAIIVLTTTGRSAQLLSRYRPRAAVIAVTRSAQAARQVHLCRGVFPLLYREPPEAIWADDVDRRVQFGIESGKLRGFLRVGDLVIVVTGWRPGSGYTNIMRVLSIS
# Molecular target: Human pyruvate kinase R (PKR) (Homo sapiens, UniProt P30613)
# Experiment: Biochemical assay for activation of pyruvate kinase R (Kinase-Glo luminescence, ATP generation)
# Settings: for PKR % activation: maximal activation level relative to the activation level achieved by AG-348 @ 10 μM; for AC50: read-out: PKR AC50, 0.1 nM PKR, 2 mM FBP, 0.3 mM ADP, 0.1 mM PEP
PKR % activation,AC50,SMILES
151%,9.4 µM,"COc1ccc(S(=O)(=O)n2cc3c(n2)CN(C(=O)C(O)c2ncccc2F)C3)nc1 (single isomer, unassigned) [Compound 105]"
103%,0.24 µM,"COc1ccc(S(=O)(=O)n2cc3c(n2)CN(C(=O)C(O)c2ncccc2F)C3)nc1 (single isomer, unassigned) [Compound 104]"
